Measured values from patent US20210024583A1, “COMPOSITIONS AND METHODS FOR PEPTIDE MEDIATED OLIGONUCLEOTIDE DELIVERY TO THE CENTRAL NERVOUS SYSTEM” (The Regents of the University of California, priority 2019, published 2021).

How the values were obtained:
ASyn = ASyn accumulation in differentiated SH-SY5Y cells infected with LV-ASyn or LV-Ctrl; assay type: cell-based, human; conditions: 100 pmol, 48 hours, immunohistochemistry, confirmed by immunoblot
Experimental: In order to determine if the ApoB^11:2-OMe ASyn could reduce the accumulation of ASyn in a neuronal cell line as efficiently as the RNA sequence, we differentiated SH-SY5Y human neuroblastoma cells and infected with a lentivirus vector overexpressing human ASyn (LV-ASyn) or a control vector (LV-Ctrl). Cells were treated with the ApoB^11:oligonucleotide for 48 hours and then either fixed/stained for ASyn or cell lysates were collected/analyzed by immunoblot for ASyn protein. […] Thus, the 2′OMe backbone was efficiently transport into cells and reduced the expression of ASyn in neurons.
In order to determine whether ApoB^11:2-OMe siα-syn can reduce accumulation of α-syn in a neuronal cell line as efficiently as the RNA backbone (siRNA α-syn), we infected differentiated SH-SY5Y human neuroblastoma cells with a lentivirus vector overexpressing human α-syn (LV-α-syn) or control vector (LV-Ctrl). Cells were then treated with ApoB^11:si α-syn (alphα-syn) or ApoB^11:si scrambled for 48 hours and then either fixed and immunostained for α-syn or lysed for immunoblot analysis of α-syn protein.
FIG. 9A-D illustrates data showing that the delivery of ApoB^11:2′-OMe siASyn ASO reduces the accumulation of A-Syn in human neuronal cells in vitro. Human neuroblastoma cells, SH-SY5Y, were differentiated and infected with LV-ASyn or LV-Ctrl for 72 hours in differentiation media. […]

GFAP = GFAP immunoreactivity (astrogliosis) in α-syn tg mice after repeat i.p. injections; assay type: in vivo, mouse; conditions: neocortex and CA3 region of hippocampus
Experimental: To determine if the siαSyn gene transfer ameliorated the neurodegenerative alterations associated with the expression of α-syn, briefly as previously described, blind-coded, 40-μm thick vibratome sections from mouse brains fixed in 4% paraformaldehyde were immunolabeled with the mouse monoclonal antibodies against NeuN (neuronal marker, Millipore) or glial fibrillary acidic protein (GFAP, astroglial marker, Chemicon). After overnight incubation with the primary antibodies, sections were incubated with biotinylated secondary antibody and reacted with diaminobenzidine, transferred to SuperFrost™ slides (Fisher Scientific). All sections were processed under the same standardized conditions. For each mouse, a total of three sections each were analyzed and for each section, three fields each in the frontal cortex, hippocampus and striatum were examined. For NeuN, results were expressed as numbers of positive cells and for GFAP and Synuclein, results were expressed as corrected optical density. Optical density measurements were obtained using the ImageQuant™ software and quantification performed by correcting against background signal levels. All sections were processed simultaneously under the same conditions and experiments were performed twice in order to assess the reproducibility of results. Sections were imaged with a digital scanning microscope (Zeiss). […]

For “5′GGG CAU ACU GAG CUA ACA A (GGGCAUACUGAGCUAACAA; siRNA; mixed with ApoB11 or C2-9r carrier peptide, further chemistry not given here) [si-scrambled]”, the “endogenous levels of ASyn in cells infected with LV-Ctrl” value (ASyn) was “high levels of endogenous α-syn” and the GFAP immunoreactivity (GFAP) was “increased GFAP immunoreactivity”.
